{"sequences": {"note": "Sequences of proteins named here, by UniProt entry; tags and fusion partners are left off.", "UniProt P35462, whole entry": "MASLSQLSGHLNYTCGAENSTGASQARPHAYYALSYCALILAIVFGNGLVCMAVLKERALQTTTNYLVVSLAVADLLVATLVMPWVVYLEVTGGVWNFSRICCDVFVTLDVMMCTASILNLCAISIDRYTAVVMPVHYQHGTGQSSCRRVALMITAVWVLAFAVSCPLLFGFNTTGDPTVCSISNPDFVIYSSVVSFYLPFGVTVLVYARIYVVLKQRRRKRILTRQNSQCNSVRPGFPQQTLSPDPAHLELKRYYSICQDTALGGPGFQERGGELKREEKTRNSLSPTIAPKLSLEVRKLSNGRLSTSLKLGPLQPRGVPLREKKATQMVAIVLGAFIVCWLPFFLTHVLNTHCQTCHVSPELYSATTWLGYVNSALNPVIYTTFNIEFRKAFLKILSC"}, "source": "ChEMBL document CHEMBL2385020", "about": "“Evaluation of N-phenyl homopiperazine analogs as potential dopamine D3 receptor selective ligands” (Bioorg Med Chem, 2013)", "target": "D(3) dopamine receptor (Homo sapiens, UniProt P35462)", "assay": "Intrinsic activity at human dopamine D3 receptor expressed in HEK293 cells assessed as inhibition of forskolin-induced adenylyl cyclase activity relative to quinpirole", "type": "functional, cell-based", "summary_of_the_method": "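Whole-cell forskolin-dependent adenylyl cyclase assay in stably transfected HEK 293 cells, read as percent inhibition. […] Normalized to the full agonist quinpirole, used at 1 μM for D2. Mean ± SEM, n = 3.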", "data": [{"compound": "COc1ccccc1N1CCCN(CCCCNC(=O)c2ccc(Cl)nc2)CC1", "values": [{"measurement": "Intrinsic activity", "result": 74.5, "unit": "%"}]}, {"compound": "COc1ccccc1N1CCCN(CCCCNC(=O)c2ccc(SC)cc2)CC1", "values": [{"measurement": "Intrinsic activity", "result": 67.9, "unit": "%"}]}, {"compound": "COc1ccccc1N1CCCN(CCCCNC(=O)c2cc3ccccc3[nH]2)CC1", "values": [{"measurement": "Intrinsic activity", "result": 59.5, "unit": "%"}]}]}
